Experimental findings from PubChem BioAssay AID1304 (The Scripps Research Institute Molecular Screening Center, 2008) are described below.

Chains of the proteins cited; added tags and fusions are not shown.
UniProt P25929, whole entry, looked up: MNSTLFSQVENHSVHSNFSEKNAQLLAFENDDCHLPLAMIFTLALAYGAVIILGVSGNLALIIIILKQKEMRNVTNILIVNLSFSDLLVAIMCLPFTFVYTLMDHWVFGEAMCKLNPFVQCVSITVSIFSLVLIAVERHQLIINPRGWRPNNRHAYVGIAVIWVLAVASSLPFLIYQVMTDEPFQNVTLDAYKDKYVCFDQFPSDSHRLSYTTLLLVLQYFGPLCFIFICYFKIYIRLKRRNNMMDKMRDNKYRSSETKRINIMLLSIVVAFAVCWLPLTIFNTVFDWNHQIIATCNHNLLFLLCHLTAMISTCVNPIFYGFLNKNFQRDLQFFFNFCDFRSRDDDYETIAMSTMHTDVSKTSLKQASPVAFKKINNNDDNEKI

Molecules are shown by their SMILES. Values joined by “and” are separate entries in the source; they are usually repeats but may differ in a detail not shown here. Equal entries are not always repeated. The list shows a part of the results, in another mix than the full data. Active and inactive are the calls of the source. No stated cut-off is given here; in the data, active means activation above about 33% (passing the limit was not always enough); inactive means the rest.

The target of the test is Neuropeptide Y receptor type 1 (Homo sapiens) (UniProt P25929). Description: NPY-Y1 receptor potentiators or agonists, primary screen, cell-based (AID 1304).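 Further: cells stimulated with NPY at EC10 then isoproterenol at EC100; 0% = low agonist plus stimulus and 100% = saturating agonist plus stimulus.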 The conditions noted are these: NPY-Y1 expressing cells, potentiator/agonist activation; at 3.6 µM; active compounds read high.
Take `CCNC(=S)/N=C(\N)N[N+](=O)[O-]`: the activation is inactive: 9.94%. On to `O=C(NC1CCS(=O)(=O)C1)NP(=S)(Oc1ccccc1)Oc1ccccc1` (stereo not drawn), for which the activation was inactive: -0.64%. Consider `CCOC(=O)NC(Sc1ccccc1)C(Cl)(Cl)Cl` (stereo not drawn), for which the activation is inactive: 8.59%. `Cc1ccc(NP(=O)(Oc2cccc(C)c2)Oc2cccc(C)c2)nc1`: the activation was inactive: 7.78%. Consider `c1ccc(-c2nn[nH]n2)c(-c2nn[nH]n2)c1`, for which the activation was inactive: 8.58%. With `O=c1c2cc([N+](=O)[O-])ccc2[nH]c2c([N+](=O)[O-])cc([N+](=O)[O-])cc12`, the activation was inactive: 8.49%. To `CN(C)C(=O)Oc1noc2ccccc12` belongs inactive: 3.45%. With `Cc1ccccc1OP(=O)(Nc1ccccn1)Oc1ccccc1C` the figure was inactive: 21.3%. In the case of `Cc1ccc(OP(=O)(Nc2ccccn2)Oc2ccc(C)cc2)cc1`, the activation is inactive: 4.88%. Take `CC(=O)NC(SC(=S)N(CC(C)C)CC(C)C)C(Cl)(Cl)Cl` (stereo not drawn): the activation was inactive: -8.05%. As for `COC(=O)c1cc2c(s1)N=C(c1ccccc1)N(C)P2(=O)N1CCOCC1` (stereo not drawn), the activation is inactive: 20.6%. With `CCC(=O)N1C2C3N(C(=O)CC)C1C1N(C(=O)CC)C(C(N1C(=O)CC)N3C(=O)CC)N2C(=O)CC` the figure was inactive: 1.72%; with `CC(C)(C)C(=O)NC(Sc1ccccc1)C(Cl)(Cl)Cl` (stereo not drawn), inactive: -0.16%; with `CCOc1ccc(C2=NCC(CBr)S2)cc1` (stereo not drawn), inactive: 7.81%. For the molecule `O=P1(Nc2nc3ccc(Cl)cc3s2)COc2ccccc2O1` (stereo not drawn), the activation is inactive: 3.57%.

With `CC(=O)Nc1ccc(Oc2c([N+](=O)[O-])cc([N+](=O)[O-])cc2[N+](=O)[O-])cc1`, the activation is inactive: -25.9%. To `CC(=O)Nc1ccc([As](=O)(O)O)c(O)c1` belongs inactive: -2.61%; to `c1nnnn1CCn1cnnn1`, inactive: 3.27%. To `CC(C)C(=O)NC(Sc1ccccc1)C(Cl)(Cl)Cl` (stereo not drawn) belongs inactive: -8.01%; to `O=P(Nc1nccs1)(c1ccccc1)c1ccccc1`, inactive: -3.39%. `O=P(Nc1nc2ccccc2s1)(c1ccccc1)c1ccccc1`: the activation is inactive: 1.29%. On to `O=P(Nc1ccccn1)(c1ccc(Br)cc1)c1ccc(Br)cc1`, for which the activation is inactive: -26%. Take `C(Cc1nn[nH]n1)Cc1nn[nH]n1`: the activation was inactive: 12.4%. With `Nc1ccc([As](=O)(O)c2ccc([N+](=O)[O-])cc2)cc1` the figure was inactive: 16.1%. As to `O=C(OC1CN2CCC1CC2)c1cccc(Cl)c1` (stereo not drawn), the activation was inactive: -13.3%. Turning to `O=[N+]([O-])c1ncn(CCn2cnc([N+](=O)[O-])n2)n1`, the activation was inactive: 16.1%. `CC(=O)NC(SC(=S)N(C)C)C(Cl)(Cl)Cl` (stereo not drawn): the activation is inactive: -1.11%. To `O=[As](O)(c1ccccc1)c1ccc(O)cc1` belongs inactive: 0.01%; to `O=C(Nc1cc([As](=O)(O)O)ccc1O)c1ccccc1`, inactive: 4.48%. Consider `O=[N+]([O-])c1cccc(NC2=NCC(CBr)S2)c1` (stereo not drawn), for which the activation is inactive: -3.61%. With `O=C(O)CNc1ccc([As](=O)(O)O)cc1` the figure was inactive: 8.57%; with `CC(C)(C)C(=O)NC(Sc1ccncn1)C(Cl)(Cl)Cl` (stereo not drawn), inactive: 2.95%. In the case of `O=[N+]([O-])c1ncn(CCn2ncnc2[N+](=O)[O-])n1`, the activation was inactive: 3.43%.

Consider `O=[N+]([O-])c1cccc2n[nH]nc12`, for which the activation was inactive: -19.9%. For the molecule `CC(=O)N1C2C3N(C(C)=O)C1C1N(C(C)=O)C(C(N1C(C)=O)N3C(C)=O)N2C(C)=O`, the activation is inactive: -6.43%.

`CCc1nc2c(n1)c1c(non1O)c1c2no[n+]1[O-]`: the activation was inactive: -37.3%.

As to `O=[N+]([O-])c1cc([N+](=O)[O-])c(CCNc2ccccc2)c([N+](=O)[O-])c1`, the activation is inactive: 11.4%. Regarding `Cc1ccc(NP(=O)(Oc2ccccc2)Oc2ccccc2)nc1`, the activation is inactive: -4%. Turning to `COc1ccc(C2=NCC(CBr)S2)cc1` (stereo not drawn), the activation is inactive: 4.3%. `CN(C)C(=O)OCCc1n(C)cc[n+]1C`: the activation is inactive: 19.8%. To `CC(C)=N/N=C(\N)N[N+](=O)[O-]` belongs inactive: 4.49%; to `CC1CCN(C(=O)Oc2c(Cl)cc(Cl)c3cccnc23)CC1`, inactive: 5.53%; to `C[N+]1=C2C=CC=CC=C2SC12C([N+](=O)[O-])=CC([N+](=O)[O-])=C[C-]2[N+](=O)[O-]` (stereo not drawn), inactive: 28.3%.

Consider `Nc1ccc([As](=O)(O)c2ccc(N)cc2)cc1`, for which the activation is inactive: 10.3%. With `CCN(/C(=N/P(=O)(N1CCOCC1)N1CCOCC1)N1CCOCC1)c1ccc(OC)cc1` the figure was inactive: -0.62%; with `Cc1ccc(OP(=O)(Nc2nccs2)Oc2ccc(C)cc2)cc1`, inactive: 4.29%. With `COc1ccccc1OP(=O)(Nc1ccc(C)cn1)Oc1ccccc1OC`, the activation was inactive: 12.9%. To `CN1CCCC(OC(=O)C(c2ccccc2)c2ccccc2)C1` (stereo not drawn) belongs inactive: -17.9%; to `Clc1ccc(Cl)c(NC2=NCC(CBr)S2)c1` (stereo not drawn), inactive: 18.5%. To `NC(=O)c1cc([N+](=O)[O-])cc([N+](=O)[O-])c1N` belongs inactive: -5.71%; to `Cc1ccc(N/C(=N/P(=O)(N2CCOCC2)N2CCOCC2)N2CCOCC2)cc1`, inactive: 6.83%. To `Nc1cc(N)c2nonc2c1[N+](=O)[O-]` belongs inactive: 9.44%; to `CC(C)CC(=O)NC(Sc1ccc(Cl)cc1)C(Cl)(Cl)Cl` (stereo not drawn), inactive: 18.3%; to `O=C(NC(Sc1ccncn1)C(Cl)(Cl)Cl)c1ccccc1` (stereo not drawn), inactive: -10.1%. As to `Cc1c2non([O-])c-2c(C)[n+](=O)[n+]1[O-]`, the activation was inactive: 19.4%. With `Oc1ccccc1CNc1ccccn1` the figure was inactive: 15.6%. To `Cc1ccc(NP(=O)(Oc2ccccc2F)Oc2ccccc2F)nc1` belongs inactive: 18.4%. For the molecule `Cc1cc(SC(NC(=O)c2ccc(F)cc2)C(Cl)(Cl)Cl)ncn1` (stereo not drawn), the activation is inactive: 2.97%. To `CCOP(=O)(Nc1ccccc1)OCC` belongs inactive: 15.6% and inactive: 10.8%. Take `CC(=O)Nc1ccc([As](=O)(O)O)cc1`: the activation was inactive: 7.52%. For the molecule `O=C(O)c1ccccc1[As](=O)(O)O`, the activation was inactive: -1%.

For `O=P(Nc1nc2ccc(Cl)cc2s1)(c1ccccc1)c1ccccc1`, the activation is inactive: 14.7%. With `CCN(N=Nc1nonc1N)c1nonc1N` the figure was inactive: -3.29%; with `Nc1cccc2ccc([As](=O)(O)O)cc12`, inactive: 12.8%. With `Cc1ccc2nc3c(c(C)c2c1)CC(C(Cl)Cl)S3` (stereo not drawn), the activation was inactive: -19.7%. With `Cc1ccc(OP(=O)(Nc2ccc([N+](=O)[O-])cn2)Oc2ccc(C)cc2)cc1` the figure was inactive: 12.6%; with `C[As](=O)(O)c1cccc(C(=O)O)c1`, inactive: 17.9%; with `O=[As](O)(c1ccc(O)cc1)c1ccccc1O`, inactive: 4.48%.

For the molecule `O=[N+]([O-])c1cc([N+](=O)[O-])c(-c2ccn[nH]2)s1`, the activation was inactive: 16.2%.

Turning to `CC(C)NC(=O)NP(=O)(Oc1ccccc1)Oc1ccccc1`, the activation is inactive: -10.2%. Take `CCN(CC)C(=S)SC(NC=O)C(Cl)(Cl)Cl` (stereo not drawn): the activation was inactive: -2.9%. To `CC(C)c1ccc(OP(=O)(Nc2ccccn2)Oc2ccccc2F)cc1` (stereo not drawn) belongs inactive: 3.03%; to `ClCCSc1nnc(-c2cccnc2)o1`, inactive: -20.5%; to `COc1cc(I)ccc1[As](=O)(O)O`, inactive: 11.6%. To `COc1ccc2nc(NP(=O)(c3ccccc3)c3ccccc3)sc2c1` belongs inactive: -1.63%; to `Cc1cc(=O)[nH]c(N[N+](=O)[O-])n1`, inactive: 17.6%. `O=C(OC1CN2CCC1CC2)C12CC3CC(CC(C3)C1)C2` (stereo not drawn): the activation is inactive: -31.2%. As for `Cc1c2c(nc3ccccc13)SC(C(Cl)Cl)C2` (stereo not drawn), the activation is inactive: -9.19%. Take `COc1ccc(N/C(=N/P(=O)(N2CCOCC2)N2CCOCC2)N2CCOCC2)cc1`: the activation was inactive: 13%. In the case of `O=C(COc1ccccc1)OC1CN2CCC1CC2` (stereo not drawn), the activation is inactive: -1.85%.

As to `COP1(=S)c2c(C)nn(CCC#N)c2N=C(c2ccc(F)cc2)N1C` (stereo not drawn), the activation was inactive: 13.4%. With `CCC(C)N(CC(C)C)C(=S)SC(NC(C)=O)C(Cl)(Cl)Cl` (stereo not drawn) the figure was inactive: -7.27%. On to `CCOC(=O)c1ccc(NC(=O)C(C)(CCl)SC)cc1` (stereo not drawn), for which the activation is inactive: -11%. For the molecule `Cc1cc(SC(NC(=O)c2ccccc2)C(Cl)(Cl)Cl)nc(C(C)C)n1` (stereo not drawn), the activation is inactive: -16.9%. For the molecule `CCOC(=O)Nc1ccc([As](=O)(O)O)c(O)c1`, the activation was inactive: 8.17%. Turning to `O=[N+]([O-])c1ccc(Nc2ccc(Oc3ccc([N+](=O)[O-])cc3[N+](=O)[O-])cc2)c([N+](=O)[O-])c1`, the activation is inactive: 16.9%.

`O=P(Nc1ccccn1)(c1cccc2ccccc12)c1cccc2ccccc12`: the activation was inactive: 6.91%. To `Cc1cc(SC(NC=O)C(Cl)(Cl)Cl)ncn1` (stereo not drawn) belongs inactive: -8.52%; to `CCOC(=O)Nc1cccc([As](=O)(O)O)c1`, inactive: -11.3%.

`O=C(/C=C/c1ccccc1)OC1CN2CCC1CC2` (stereo not drawn): the activation was inactive: -9.29%. With `CN(C)C1(CNC(=O)c2ccc(S(C)(=O)=O)cc2)CCCCC1` the figure was inactive: 21.3%. For the molecule `CC1CCC(C(C)C)C(OP(=O)(Nc2ccccn2)c2ccccc2)C1` (stereo not drawn), the activation is inactive: 10.9%.

With `Cc1nn(-c2ccccc2)c2c1P(=O)(N1CCOCC1)N(C)C(c1ccccc1)=N2` (stereo not drawn), the activation was inactive: 7.68%. With `O=[As](O)(c1cccs1)c1cccs1`, the activation is inactive: 21.9%. With `Cc1ccc(OCC(=O)OC2CN3CCC2CC3)cc1` (stereo not drawn) the figure was inactive: -15.6%. As for `O=P1(Nc2ccc(Br)cn2)COc2ccccc2OC1`, the activation was inactive: 13.3%. Take `Nc1cccc([As](=O)(O)c2ccccc2)c1`: the activation is inactive: -0.81%. Regarding `O=P1(Nc2ncccn2)COc2ccccc2OC1`, the activation was inactive: 3.2%. With `CC(C)(C)C(=O)NC(Sc1ncccn1)C(Cl)(Cl)Cl` (stereo not drawn) the figure was inactive: 14.6%.

Regarding `Clc1n[nH]nc1-c1nn[nH][15n]1`, the activation was inactive: -9.02%.

Regarding `CCOP(=O)(Nc1ccc(C)cn1)OCC`, the activation is inactive: 8.62%.

Consider `O=P1(Nc2ccccn2)COc2ccccc2OC1`, for which the activation is inactive: -8%. As for `CC1(CBr)Cn2c(nc3ccccc3c2=O)S1` (stereo not drawn), the activation was inactive: -2.02%.
